Assay [1] concerns the target plasmin (UniProt P00747). The assay can be described thus: enzyme inhibition kinetics.
Assay [2] addresses thrombin (UniProt P00734). The assay can be described thus: enzyme inhibition kinetics.

Data on two substances can be found in article PMC179894.

Regarding “PAI-1 Glu351Ala (from UniProt P05121 24-402) (natural protein)”, the second-order rate constant of inhibition amounted to 62900 M⁻¹ s⁻¹ in assay [1] and 1740 M⁻¹ s⁻¹ in assay [2].

For the substance “PAI-1 Glu351Arg (from UniProt P05121 24-402) (natural protein)”, the figures for the second-order rate constant of inhibition in assay [1] and in assay [2] were 71200 M⁻¹ s⁻¹ and 3300 M⁻¹ s⁻¹, respectively.
